Measured values as given in patent US8957085B2, “Carboxamide bioisosteres of opiates” (Rensselaer Polytechnic Institute, priority 2010, dated 2015).

The chains behind the UniProt entries cited, without tags or fusion partners. Where a name states a change or a piece, a line headed by the entry shows the natural chain unless it says otherwise.
UniProt P35372, whole entry: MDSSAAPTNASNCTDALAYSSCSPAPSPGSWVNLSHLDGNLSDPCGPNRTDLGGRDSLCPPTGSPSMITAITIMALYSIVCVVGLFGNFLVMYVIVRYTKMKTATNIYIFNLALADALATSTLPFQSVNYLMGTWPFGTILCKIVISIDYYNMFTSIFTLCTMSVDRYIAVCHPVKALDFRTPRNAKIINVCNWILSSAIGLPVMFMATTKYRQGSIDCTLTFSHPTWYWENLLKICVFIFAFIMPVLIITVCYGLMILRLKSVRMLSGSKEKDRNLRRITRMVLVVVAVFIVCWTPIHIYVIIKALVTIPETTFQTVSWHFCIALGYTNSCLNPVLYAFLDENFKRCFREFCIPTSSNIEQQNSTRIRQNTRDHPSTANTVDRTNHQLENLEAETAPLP
UniProt P41145: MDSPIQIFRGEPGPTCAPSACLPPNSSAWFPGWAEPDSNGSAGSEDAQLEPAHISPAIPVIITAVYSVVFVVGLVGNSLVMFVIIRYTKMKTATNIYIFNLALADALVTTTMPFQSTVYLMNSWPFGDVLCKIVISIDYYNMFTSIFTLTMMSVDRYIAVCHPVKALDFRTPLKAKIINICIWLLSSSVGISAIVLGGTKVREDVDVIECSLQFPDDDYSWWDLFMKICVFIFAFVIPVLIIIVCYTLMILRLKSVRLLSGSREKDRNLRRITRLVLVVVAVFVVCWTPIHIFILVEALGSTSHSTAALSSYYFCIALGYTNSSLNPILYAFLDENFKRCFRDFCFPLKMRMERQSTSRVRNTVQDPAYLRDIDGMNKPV

Tests used:
human μ opioid receptor = human μ opioid receptor (Homo sapiens, UniProt P35372); assay: Opioid receptor binding assay, [3H]DAMGO (μ)
human κ opioid receptor = human κ opioid receptor (Homo sapiens, UniProt P41145); assay: biochemical

| Structure (SMILES) | Ki (human μ opioid receptor) [nM] | Ki (human κ opioid receptor) [nM] |
| --- | --- | --- |
| CCOc1ccc(-c2ccc(CCNC(=O)c3ccc4c(c3)C3(C)CCN(CC5CC5)C(C4)C3C)cc2)cc1 (racemic) [Compound 4] | 0.64 ± 0.058 |  |
| CC1C2Cc3ccc(C(=O)NCCc4ccc(-c5ccc(O)cc5)cc4)cc3C1(C)CCN2CC1CC1 (single isomer, unassigned) [Compound 1A] | 0.0049 ± 0.001 |  |
| CC(C)Oc1ccccc1-c1ccc(CCNC(=O)c2ccc3c(c2)C2(C)CCN(CC4CC4)C(C3)C2C)cc1 (racemic) [Compound 7] | 0.12 ± 0.0018 |  |
| CC1C2Cc3ccc(C(=O)NCCc4ccc(-c5ccccc5)cc4)cc3C1(C)CCN2CC1CC1 (single isomer, unassigned) [Reference (+), reference compound] |  | 8.5 ± 1.07 |
| CC1C2Cc3ccc(C(=O)NCCc4ccc(-c5ccc(O)cc5)cc4)cc3C1(C)CCN2CC1CC1 (racemic) [Compound 1] | 0.0056 ± 0.00073 |  |
